# The entries are a selection whose mix differs from that of the whole data set. Activity calls are given as the source filed them. The call rests on the fitted dose curve; in most records, active means well fitted inhibition curve with a large enough effect; inconclusive means small, poorly fitted or top-dose-only effect; inactive means no such curve, though single readings can be large or run the other way.
# Protein sequences, listed by entry. Tags and fused reporters are not part of them.
# UniProt O15296, whole entry: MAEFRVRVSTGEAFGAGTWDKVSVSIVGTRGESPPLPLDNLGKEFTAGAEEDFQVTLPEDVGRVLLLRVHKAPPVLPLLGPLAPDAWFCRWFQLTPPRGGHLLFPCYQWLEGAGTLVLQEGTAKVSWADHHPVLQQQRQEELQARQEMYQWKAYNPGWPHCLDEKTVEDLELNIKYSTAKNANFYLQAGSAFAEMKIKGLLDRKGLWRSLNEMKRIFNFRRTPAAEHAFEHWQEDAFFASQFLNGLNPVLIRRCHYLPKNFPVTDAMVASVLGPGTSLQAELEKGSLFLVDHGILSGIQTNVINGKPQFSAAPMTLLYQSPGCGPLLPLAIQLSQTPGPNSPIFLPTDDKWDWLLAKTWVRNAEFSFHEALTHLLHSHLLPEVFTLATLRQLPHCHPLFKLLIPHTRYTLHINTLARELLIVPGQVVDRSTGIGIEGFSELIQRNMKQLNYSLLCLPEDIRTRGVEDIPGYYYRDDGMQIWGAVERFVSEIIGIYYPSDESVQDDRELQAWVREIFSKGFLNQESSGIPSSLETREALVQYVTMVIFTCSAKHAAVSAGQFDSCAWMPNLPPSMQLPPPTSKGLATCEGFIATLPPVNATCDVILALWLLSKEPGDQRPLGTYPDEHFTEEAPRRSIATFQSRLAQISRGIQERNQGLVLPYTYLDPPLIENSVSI
# Molecular target: Polyunsaturated fatty acid lipoxygenase ALOX15B (Homo sapiens) (UniProt O15296)
# Assay: qHTS Assay for Inhibitors of 15-hLO-2 (15-human lipoxygenase 2); further: nearly all actives have a fitted effect of over 60% in size
# Conditions: purified 15hLO-2, xylenol orange hydroperoxide absorbance; at 57.1 µM unless noted
# Text: Assay Overview: NIH Molecular Libraries Screening Centers Network [MLSCN] NIH Chemical Genomics Center [NCGC] MLSCN Grant: MH081283-01A1 PI Name: Holman, T.R., University of California, Santa Cruz Human lipoxygenase 15hLO-2 is a member of the closely related lipoxygenase family of enzymes which catalyze the site-specific oxidation of arachidonic acid to various hormone precursor molecules and as such is a candidate for drug development in a variety of disease areas, such as cancer and inflammation. Inhibition of 15hLO-2 activity was screened by utilizing arachidonic acid as a substrate. The extent of hydroperoxide product formation was measured by a secondary chromogenic reaction in which xylenol orange (XO, Sigma-Aldrich, cat. number 39,818-7) reacts with the ferric ions produced from the reaction between the hydroperoxide and ferrous ions. The Fe(III)-XO complex is characterized with red-shifted absorbance at 560 nm. A purified preparation of human 15hLO-2 was supplied by Professor Ted Holman, University of California, Santa Cruz.
# Assay Protocol: Buffer: 25 mM Hepes pH 7.5, 0.01% Triton X-100. Reagents/Controls: Buffer in columns 3 and 4 as negative control (no enzyme). Substrate solution: 45 uM arachidonic acid (Sigma-Aldrich, St. Louis, MO) final concentration dispensed throughout the plate. Enzyme: 50 nM 15hLO-2 final concentration in columns 1, 2, 5-48. Column 1 is neutral (100% activity). Column 2 contained pin-transferred titration of NDGA (nordihidroguaiaretic acid, Sigma-Aldrich, N 5023, top concentration 10 mM in DMSO, then 1:2 dilution in duplicate). (Dilution factor: 23 nL into 4 uL.) Chromogenic detection reagent (divalent iron/xylenol orange, Fe-XO): 200 uM xylenol orange plus 300 uM ferrous ammonium sulfate prepared freshly in 50 mM sulfuric acid. Assay Steps: Three uL of enzyme were dispensed to 1536-well Greiner black clear bottom plates. Compounds and controls (23 nL) were transferred via Kalypsys PinTool. The plates were incubated for 15 min at room temperature, and then 1 uL of substrate solution was added to start the reaction. After room temperature incubation for 90 minutes, 4 uL of Fe-XO solution was added to each well followed by a short spin (1000 rpm, 15 sec) and the plates were then incubated for 30 min. The absorbance at 405 and 573 nm were measured using ViewLux (Perkin-Elmer) High-throughput CCD imager and absorbance protocol settings. The 573-to-405 absorbance ratio was used to compute reaction progress.
# On the % scale 0 is the no-effect control and ±100 the full control effect.
row,Structure (SMILES),"activity change, negative = inhibition"
1,c1ccc(CN2CCC(Nc3ccccc3)CC2)cc1,inactive: -0.543%
2,ClCCOP(OCCCl)OCCCl,inactive: -1.1%
3,N/C(=N\O)c1c(N)no[n+]1[O-],inactive: 6.14%
4,CCOc1ncccc1C(=O)NCC1(N2CCOCC2)CCCCC1,inactive: 4.37%
5,O=C(O)C1(Nc2ccccc2)CCN(Cc2ccccc2)CC1,inactive: -8.82% [at 11.4 µM]
6,CCC(CO)(C(=O)OC1CN2CCC1CC2)c1ccccc1 (centres undefined),inactive: -0.327%
7,Fc1ccccc1NC1CCN(Cc2ccccc2)CC1,inactive: -13.8%
8,COc1ccc(NC2CCN(CCc3ccccc3)CC2)c(OC)c1,inactive: 0.422%
9,O=C(NCC1(N2CCOCC2)CCCCC1)c1cc2ccccc2o1,inactive: 1.64%
10,O=C(OC1CN2CCC1CC2)C1c2ccccc2Oc2ccccc21 (centres undefined),inactive: 23.2%
11,CCOP(=O)(Cl)Cl,inactive: 0.69%
12,NC1CCCCC1.NP(=O)(O)N(CCCl)CCCl,inactive: 2.57% [at 11.4 µM]
13,N#CC1(Nc2ccccc2)CCN(CCc2ccccc2)CC1,inactive: 23.6%
14,O=C(NCC1(N2CCOCC2)CCCCC1)c1cc(=O)[nH]c2ccccc12,inactive: 3.13%

# Reference: PubChem BioAssay AID881 (National Center for Advancing Translational Sciences (NCATS), 2007)
